In the test the target is isolated polymerase domain (I1780-V2590) of DNA polymerase theta (Polθ) (Homo sapiens (Human), UniProt O75417). Briefly: biochemical.

By UniProt entry, the sequences of proteins in these tests, tags left out. Residues count along the entry.
UniProt O75417, 1780-2590: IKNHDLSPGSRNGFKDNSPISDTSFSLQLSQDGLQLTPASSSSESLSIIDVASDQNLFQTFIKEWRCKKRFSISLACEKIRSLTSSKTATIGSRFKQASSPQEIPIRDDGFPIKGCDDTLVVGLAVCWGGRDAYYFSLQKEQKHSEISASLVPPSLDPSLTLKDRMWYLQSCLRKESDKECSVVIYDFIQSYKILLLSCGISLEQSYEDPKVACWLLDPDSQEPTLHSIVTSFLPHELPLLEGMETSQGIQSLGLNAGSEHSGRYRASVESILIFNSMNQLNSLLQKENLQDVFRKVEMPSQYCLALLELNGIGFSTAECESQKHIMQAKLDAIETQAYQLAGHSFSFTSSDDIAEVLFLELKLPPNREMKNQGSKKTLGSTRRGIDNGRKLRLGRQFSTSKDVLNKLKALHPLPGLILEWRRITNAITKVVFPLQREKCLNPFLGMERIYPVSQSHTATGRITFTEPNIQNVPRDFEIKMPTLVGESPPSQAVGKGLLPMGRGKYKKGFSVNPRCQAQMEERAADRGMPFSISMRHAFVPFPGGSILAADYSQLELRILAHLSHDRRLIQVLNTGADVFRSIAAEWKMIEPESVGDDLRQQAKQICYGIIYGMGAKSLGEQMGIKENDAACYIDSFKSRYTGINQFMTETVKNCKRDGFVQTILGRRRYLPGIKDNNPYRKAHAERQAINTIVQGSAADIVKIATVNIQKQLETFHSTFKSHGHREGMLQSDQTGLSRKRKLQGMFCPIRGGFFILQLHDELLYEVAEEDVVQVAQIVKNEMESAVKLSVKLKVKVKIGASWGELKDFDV

As to `CNCCOc1ccc(-c2nc3c(OC4(C)CC4)ncnc3n2Cc2cc(C)ccn2)c(Cl)c1` [Example T137, 2-(3-chloro-4-(6-(1-methylcyclopropoxy)-9-((4-methylpyridin-2-yl)methyl)-9H-purin-8-yl)phenoxy)-N-methylethan-1-amine], the IC50 is 7.94 nM. This counts as single-digit nanomolar.
For `Cc1cnc(Cn2c(-c3ccc(OC[C@H]4CCCN4)cc3Cl)nc3c(OC4(C)CC4)ncnc32)s1` [Example T139, (R)-2-((8-(2-chloro-4-(pyrrolidin-2-ylmethoxy)phenyl)-6-(1-methylcyclopropoxy)-9H-purin-9-yl)methyl)-5-methylthiazole], the midpoint of inhibition, the IC50, lay at 10 nM. This IC50 and that of the molecule before are within 1.5-fold of each other.
In turn, `Cc1cnc(Cn2c(-c3ccc(O[C@H]4CCN(C)C4)cc3Cl)nc3c(OC4(C)CC4)ncnc32)s1` [Example T140, (S)-2-((8-(2-chloro-4-((1-methylpyrrolidin-3-yl)oxy)phenyl)-6-(1-methylcyclopropoxy)-9H-purin-9-yl)methyl)-5-methylthiazole] had an IC50 of 3.98 nM.
The molecule `Cc1cnc(Cn2c(-c3ccc(OCCN4CC(O)C4)cc3Cl)nc3c(OC4(C)CC4)ncnc32)s1` [Example T141, 1-(2-(3-chloro-4-(6-(1-methylcyclopropoxy)-9-((5-methylthiazol-2-yl)methyl)-9H-purin-8-yl)phenoxy)ethyl)azetidin-3-ol] showed an IC50 of 7.94 nM.
For the molecule `Cc1cnc(Cn2c(-c3cccc(OCCN4CC(O)C4)c3Cl)nc3c(OC4(C)CC4)ncnc32)s1` [Example T142, 1-(2-(2-chloro-3-(6-(1-methylcyclopropoxy)-9-((5-methylthiazol-2-yl)methyl)-9H-purin-8-yl)phenoxy)ethyl)azetidin-3-ol], it took 15.8 nM to reach half-maximal inhibition (IC50). This IC50 is about 2-fold higher than that of the molecule before.
Molecule `Cc1ccnc(Cn2c(-c3ccc(CCNS(C)(=O)=O)cc3Cl)nc3c(OC4(C)CC4)ncnc32)c1` [Example T143, N-(3-chloro-4-(6-(1-methylcyclopropoxy)-9-((4-methylpyridin-2-yl)methyl)-9H-purin-8-yl)phenethyl)methanesulfonamide] had an IC50 of 7.94 nM.
In turn, `Cc1ccnc(Cn2c(-c3ccc(OCCNS(C)(=O)=O)cc3Cl)nc3c(OC4(C)CC4)ncnc32)c1` [Example T144, N-(2-(3-chloro-4-(6-(1-methylcyclopropoxy)-9-((4-methylpyridin-2-yl)methyl)-9H-purin-8-yl)phenoxy)ethyl)methanesulfonamide] gave an IC50 of 6.31 nM.
As to `CC1(Oc2ncnc3c2nc(-c2ccc(OCCN4CCNCC4)cc2Cl)n3Cc2ncsc2Cl)CC1` [Example T145, 5-chloro-4-((8-(2-chloro-4-(2-(piperazin-1-yl)ethoxy)phenyl)-6-(1-methylcyclopropoxy)-9H-purin-9-yl)methyl)thiazole], the IC50 is 39.8 nM. Against the preceding molecule, the IC50 is about 6.3-fold higher.
In turn, `CC1(Oc2ncnc3c2nc(-c2ccc(OCCN4CCNCC4)cc2Cl)n3Cc2cnc(Cl)s2)CC1` [Example T146, 2-chloro-5-((8-(2-chloro-4-(2-(piperazin-1-yl)ethoxy)phenyl)-6-(1-methylcyclopropoxy)-9H-purin-9-yl)methyl)thiazole] had an IC50 of 6.31 nM.
Consider `Cc1nn(C)c(C)c1CCn1c(-c2ccc(CC(N)=O)cc2Cl)nc2c(OC3(C)CC3)ncnc21` [Example T147, 2-(3-chloro-4-(6-(1-methylcyclopropoxy)-9-(2-(1,3,5-trimethyl-1H-pyrazol-4-yl)ethyl)-9H-purin-8-yl)phenyl)acetamide], for which the IC50 was at least 10000 nM.
The result for `Cc1cnc(Cn2c(-c3ccc(OCCCN(C)C)cc3Cl)nc3c(OC4(C)CC4)ncnc32)s1` [Example T148, 3-(3-chloro-4-(6-(1-methylcyclopropoxy)-9-((5-methylthiazol-2-yl)methyl)-9H-purin-8-yl)phenoxy)-N,N-dimethylpropan-1-amine] reads 12.6 nM.
`Cc1cnc(Cn2c(-c3cccc(OCCCN(C)C)c3Cl)nc3c(OC4(C)CC4)ncnc32)s1` [Example T149, 3-(2-chloro-3-(6-(1-methylcyclopropoxy)-9-((5-methylthiazol-2-yl)methyl)-9H-purin-8-yl)phenoxy)-N,N-dimethylpropan-1-amine] showed an IC50 of 5.01 nM.
The molecule `Cn1cnnc1Cn1c(-c2ccc(OCCN3CCNCC3)cc2Cl)nc2c(OC3(C)CC3)ncnc21` [Example T150, 8-(2-chloro-4-(2-(piperazin-1-yl)ethoxy)phenyl)-9-((4-methyl-4H-1,2,4-triazol-3-yl)methyl)-6-(1-methylcyclopropoxy)-9H-purine] had an IC50 of at least 10000 nM.
In turn, `CC1(Oc2ncnc3c2nc(-c2ccc(OCCC(=O)O)cc2Cl)n3Cc2cccc(C(F)(F)F)c2)CC1` [Example T151, 3-(3-chloro-4-(6-(1-methylcyclopropoxy)-9-(3-(trifluoromethyl)benzyl)-9H-purin-8-yl)phenoxy)propanoic acid] had an IC50 of 7.94 nM.
Consider `C#CCNC(=O)c1ccc(-c2nc3c(OC4(C)CC4)ncnc3n2Cc2cc(C)ccn2)c(Cl)c1` [Example T152, 3-chloro-4-(6-(1-methylcyclopropoxy)-9-((4-methylpyridin-2-yl)methyl)-9H-purin-8-yl)-N-(prop-2-yn-1-yl)benzamide], for which the IC50 was 7.94 nM. This counts as single-digit nanomolar.
Molecule `Cc1ccnc(Cn2c(-c3ccc(C(=O)N4CC(F)C4)cc3Cl)nc3c(OC4(C)CC4)ncnc32)c1` [Example T153, (3-chloro-4-(6-(1-methylcyclopropoxy)-9-((4-methylpyridin-2-yl)methyl)-9H-purin-8-yl)phenyl)(3-fluoroazetidin-1-yl)methanone] gave an IC50 of 20 nM.
The molecule `Cc1ccnc(Cn2c(-c3ccc(OCC(=O)NCC(F)(F)F)cc3Cl)nc3c(OC4(C)CC4)ncnc32)c1` [Example T154, 2-(3-chloro-4-(6-(1-methylcyclopropoxy)-9-((4-methylpyridin-2-yl)methyl)-9H-purin-8-yl)phenoxy)-N-(2,2,2-trifluoroethyl)acetamide] gave an IC50 of 6.31 nM.
For `CC1(Oc2ncnc3c2nc(-c2ccc(CCCC(=O)O)cc2Cl)n3Cc2cccc(Cl)c2)CC1` [Example T155, 4-(3-chloro-4-(9-(3-chlorobenzyl)-6-(1-methylcyclopropoxy)-9H-purin-8-yl)phenyl)butanoic acid], the IC50 was 5.01 nM. This IC50 and that of the molecule before are within 1.5-fold of each other.
Molecule `COC(=O)CCOc1ccc(-c2nc3c(OC4(C)CC4)ncnc3n2Cc2cccc(Cl)c2)c(Cl)c1` [Example T156, methyl 3-(3-chloro-4-(9-(3-chlorobenzyl)-6-(1-methylcyclopropoxy)-9H-purin-8-yl)phenoxy)propanoate] had an IC50 of 3.98 nM.
`CC1(Oc2ncnc3c2nc(-c2cccc(OCCCC(=O)O)c2Cl)n3Cc2cccc(Cl)c2)CC1` [Example T157, 4-(2-chloro-3-(9-(3-chlorobenzyl)-6-(1-methylcyclopropoxy)-9H-purin-8-yl)phenoxy)butanoic acid] showed an IC50 of 5.01 nM.
The result for `CC1(Oc2ncnc3c2nc(-c2cccc(OC(C)(C)C(=O)O)c2Cl)n3Cc2cccc(Cl)c2)CC1` [Example T158, 2-(2-chloro-3-(9-(3-chlorobenzyl)-6-(1-methylcyclopropoxy)-9H-purin-8-yl)phenoxy)-2-methylpropanoic acid] reads 10 nM.
The result for `C[C@H](COc1cccc(-c2nc3c(OC4(C)CC4)ncnc3n2Cc2cccc(Cl)c2)c1Cl)C(=O)O` [Example T159, (R)-3-(2-chloro-3-(9-(3-chlorobenzyl)-6-(1-methylcyclopropoxy)-9H-purin-8-yl)phenoxy)-2-methylpropanoic acid] reads 6.31 nM.

In general, IC50 refers to the concentration at which inhibition is half-maximal.
